# Experimental data reported in PMC7251871 (2020).
# Protein sequences, listed by entry. Tags and fused reporters are not part of them.
# UniProt Q92731, whole entry: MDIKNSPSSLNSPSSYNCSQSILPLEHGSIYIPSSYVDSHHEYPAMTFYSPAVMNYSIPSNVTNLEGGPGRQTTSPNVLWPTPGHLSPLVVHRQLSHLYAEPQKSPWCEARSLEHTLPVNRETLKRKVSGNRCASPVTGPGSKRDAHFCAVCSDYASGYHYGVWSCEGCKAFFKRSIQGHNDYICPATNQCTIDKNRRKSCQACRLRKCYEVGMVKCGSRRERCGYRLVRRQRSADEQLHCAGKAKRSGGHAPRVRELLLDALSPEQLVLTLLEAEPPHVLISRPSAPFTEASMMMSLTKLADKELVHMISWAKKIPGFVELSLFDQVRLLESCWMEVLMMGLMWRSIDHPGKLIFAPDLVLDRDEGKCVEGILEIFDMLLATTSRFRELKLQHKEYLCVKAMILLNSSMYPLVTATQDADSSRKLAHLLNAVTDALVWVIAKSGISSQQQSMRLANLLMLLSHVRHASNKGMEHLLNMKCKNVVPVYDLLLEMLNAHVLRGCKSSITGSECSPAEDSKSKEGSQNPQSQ
# UniProt P03372, whole entry: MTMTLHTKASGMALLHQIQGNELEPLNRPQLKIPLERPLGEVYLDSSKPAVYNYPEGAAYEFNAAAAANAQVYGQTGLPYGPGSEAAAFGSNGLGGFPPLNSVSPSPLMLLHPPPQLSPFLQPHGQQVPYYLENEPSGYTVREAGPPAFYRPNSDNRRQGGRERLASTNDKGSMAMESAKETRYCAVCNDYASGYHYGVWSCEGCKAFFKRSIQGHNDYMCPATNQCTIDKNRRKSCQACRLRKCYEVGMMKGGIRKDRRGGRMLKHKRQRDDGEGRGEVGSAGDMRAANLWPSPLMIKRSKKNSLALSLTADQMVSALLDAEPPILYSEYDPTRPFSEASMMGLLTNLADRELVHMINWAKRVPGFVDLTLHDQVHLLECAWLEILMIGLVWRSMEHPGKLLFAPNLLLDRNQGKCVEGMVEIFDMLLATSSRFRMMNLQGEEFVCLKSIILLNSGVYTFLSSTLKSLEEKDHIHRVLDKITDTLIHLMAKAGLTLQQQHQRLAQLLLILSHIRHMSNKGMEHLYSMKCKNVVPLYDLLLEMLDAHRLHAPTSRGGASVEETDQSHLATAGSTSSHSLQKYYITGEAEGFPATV
# What was measured:
# [1] = molecular target: T1, human PR (Homo sapiens, UniProt P06401); assay: PR antagonist yeast reporter gene assay (competition with PS at EC50); format: cell-based
# T1 sequence (P06401 1-933): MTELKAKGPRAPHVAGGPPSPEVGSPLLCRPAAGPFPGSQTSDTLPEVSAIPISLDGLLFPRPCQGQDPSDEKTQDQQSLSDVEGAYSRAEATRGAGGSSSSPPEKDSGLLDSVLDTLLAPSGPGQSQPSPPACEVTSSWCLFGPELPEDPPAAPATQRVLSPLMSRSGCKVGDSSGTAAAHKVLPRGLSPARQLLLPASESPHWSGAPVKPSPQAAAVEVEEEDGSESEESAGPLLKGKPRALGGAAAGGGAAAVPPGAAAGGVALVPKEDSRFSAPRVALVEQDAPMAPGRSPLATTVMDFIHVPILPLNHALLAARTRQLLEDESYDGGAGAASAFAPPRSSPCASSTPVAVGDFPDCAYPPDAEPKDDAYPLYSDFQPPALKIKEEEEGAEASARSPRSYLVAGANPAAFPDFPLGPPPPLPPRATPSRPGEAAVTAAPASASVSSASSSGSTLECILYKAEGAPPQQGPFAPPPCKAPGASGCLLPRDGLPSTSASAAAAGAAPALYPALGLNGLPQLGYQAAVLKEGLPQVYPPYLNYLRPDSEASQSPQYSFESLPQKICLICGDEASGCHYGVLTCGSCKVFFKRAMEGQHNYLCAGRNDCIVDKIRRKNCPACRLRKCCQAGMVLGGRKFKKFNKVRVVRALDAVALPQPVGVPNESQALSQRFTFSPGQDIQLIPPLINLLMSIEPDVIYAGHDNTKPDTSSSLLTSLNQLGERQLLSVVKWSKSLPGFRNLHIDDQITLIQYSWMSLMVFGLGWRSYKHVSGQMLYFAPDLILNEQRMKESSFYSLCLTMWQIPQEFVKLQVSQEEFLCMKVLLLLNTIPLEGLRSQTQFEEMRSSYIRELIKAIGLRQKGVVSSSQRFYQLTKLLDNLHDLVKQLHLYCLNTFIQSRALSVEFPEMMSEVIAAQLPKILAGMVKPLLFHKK
# [2] = molecular target: human ERβ (Homo sapiens, UniProt Q92731); conditions: 1 μM; strain cwp1Δcwp2Δ
# [3] = molecular target: human ERα (Homo sapiens, UniProt P03372); conditions: 1 μM; strain cwp1Δcwp2Δ
structure (smiles),measurement,setting,value
"CC#C[C@]1(O)CC[C@H]2[C@@H]3CCC4=CC(=O)CCC4=C3[C@@H](c3ccc(N(C)C)cc3)C[C@@]21C [Mif, mifepristone]",Maximum inhibition,[1]; strain cwp1Δcwp2Δ,84.6%
same,Maximum inhibition,[1]; strain cwp1Δpdr5Δ,87.2%
"C[C@]12CC[C@@H]3c4ccc(O)cc4C[C@@H](CCCCCCCCC[S+]([O-])CCCC(F)(F)C(F)(F)F)[C@H]3[C@@H]1CC[C@@H]2O (stereo partly shown) [ICI, ICI 182, 780]",basal β-gal expression (inverse agonist activity),[2],strongly inhibited
same,basal β-gal expression (inverse agonist activity),[3],strongly inhibited
